Measured values taken from patent US9913827B2, “Bendamustine derivatives and methods of using same” (IGNYTA, INC., priority 2012, dated 2018).
Marks after values point to notes of the source that are not given here.

System: RPMI 8226 (Human Plasmacytoma, Myeloma B Cells)
Type: in vivo, CB.17 SCID female mice
Details: day 46; 0.5 mg/kg i.v. biwk

CC(C)C[C@H](NC(=O)[C@H](Cc1ccccc1)NC(=O)c1cnccn1)B(O)O [Velcade ®, Bortezomib]
% TGI: 62*** %
No. of CR: 0
No. of PR: 0
Δ mean tumor volume, (mean ± se): 226 ± 35
